Reference: ChEMBL document CHEMBL3352519, “Discovery of a novel pyrazole series of group X secreted phospholipase A2 inhibitor (sPLA2X) via fragment based virtual screening” (Bioorg Med Chem Lett, 2014)

Biological target: T1, Group 10 secretory phospholipase A2 (Homo sapiens, UniProt O15496)
T1 sequence (O15496 whole entry): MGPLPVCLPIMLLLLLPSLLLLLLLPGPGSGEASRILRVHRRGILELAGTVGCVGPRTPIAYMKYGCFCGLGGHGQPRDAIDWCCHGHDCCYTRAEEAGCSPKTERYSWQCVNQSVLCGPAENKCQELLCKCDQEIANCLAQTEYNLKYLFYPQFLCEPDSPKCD
Test: Inhibition of human sPLA2X using 1,2-bis(heptanoylthio) glycerophosphocholine substrate incubated for 30 mins

CCc1c(C(=O)C(N)=O)c2c(OCC(=O)O)cccc2n1Cc1ccccc1 [VARESPLADIB]
IC50: 107 nM
